Experimental data as given in patent US5705611A, “Human GM-CSF receptor component” (Schering Corporation, priority 1993, dated 1998).

Target: T1, β-chain of the human GM-CSF receptor (pKH97) on COS 7 cells (Homo sapiens, UniProt P32927)
T1 construct: expressed in transfected cells; host or cells: COS 7 cells (transient, DEAE-dextran)
T1 sequence (P32927 17-897 I454T): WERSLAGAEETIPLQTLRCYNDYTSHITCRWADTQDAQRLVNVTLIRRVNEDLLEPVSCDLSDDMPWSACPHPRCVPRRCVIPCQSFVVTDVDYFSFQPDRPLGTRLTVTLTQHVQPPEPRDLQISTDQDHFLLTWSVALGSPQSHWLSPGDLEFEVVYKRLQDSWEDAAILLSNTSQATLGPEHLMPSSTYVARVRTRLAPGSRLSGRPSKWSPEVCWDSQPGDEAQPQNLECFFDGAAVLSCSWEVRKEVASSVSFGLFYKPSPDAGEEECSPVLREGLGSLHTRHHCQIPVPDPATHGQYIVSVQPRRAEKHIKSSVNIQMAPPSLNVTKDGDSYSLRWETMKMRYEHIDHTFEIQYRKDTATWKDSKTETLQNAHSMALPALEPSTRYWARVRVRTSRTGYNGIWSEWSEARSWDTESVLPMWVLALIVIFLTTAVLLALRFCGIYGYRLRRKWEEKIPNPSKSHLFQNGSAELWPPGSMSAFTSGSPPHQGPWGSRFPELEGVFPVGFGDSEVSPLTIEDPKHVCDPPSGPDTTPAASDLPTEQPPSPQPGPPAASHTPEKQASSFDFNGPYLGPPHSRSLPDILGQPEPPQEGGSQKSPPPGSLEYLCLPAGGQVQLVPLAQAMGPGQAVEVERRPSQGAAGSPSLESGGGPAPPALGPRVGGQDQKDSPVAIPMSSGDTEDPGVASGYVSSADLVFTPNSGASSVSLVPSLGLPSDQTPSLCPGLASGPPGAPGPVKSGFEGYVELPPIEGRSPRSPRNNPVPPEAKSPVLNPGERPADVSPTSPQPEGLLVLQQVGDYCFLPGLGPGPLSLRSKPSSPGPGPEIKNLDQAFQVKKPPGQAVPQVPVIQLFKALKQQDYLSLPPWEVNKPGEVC
Test: Binding of iodinated human cytokines to COS 7 cells transfected with pKH97 alone
Settings: COS 7 cells transfected with pKH97, 72 hours after transfection
Protocol: Res. Commun., Vol. 80, pgs. […] Generally, the binding assay is conducted as described by Lowenthal et al., J. Immunol., Vol 140, pgs.

## IL-2: human cytokine, iodinated, tested for binding to pKH97-transfected COS 7 cells
Iodinated cytokine at 1 nM
  specific binding: No specific binding

B1: IL-3: human cytokine, iodinated, tested for binding to pKH97-transfected COS 7 cells (protein, UniProt P08700 20-152, looked up)
Interleukin-3: APMTQTTPLKTSWVNCSNMIDEIITHLKQPPLPLLDFNNLNGEDQDILMENNLRRPNLEAFNRAVKSLQNASAIESILKNLLPCLPLATAAPTRHPIHIKDGDWNEFRRKLTFYLKTLENAQAQQTTLSLAIF
modifications: 125I-labelled
Iodinated cytokine at 20 nM
  specific binding: No specific binding
